The source of these data is paper PMC3575012 (Scientific Reports, 2013).

For the assay, the target named is humanized 3D6 antibody Fab fragment (Bapineuzumab Fab) (humanized (murine parent 3D6) | not stated). Kind of assay: MST.

Regarding “wild type amyloid-beta peptide, residues 1-28”, the Kd worked out at 151 nM.
The result for “wild type amyloid-beta peptide, residues 1-40” reads 89 nM.
